Experimental data as given in ChEMBL document CHEMBL1255325, “Plasmid-mediated qepA gene among Escherichia coli clinical isolates from Japan” (2008).

Test system: Escherichia coli
Settings: isolate DH10B

Q: For GENTAMICIN, which MIC is on record?
A: Its MIC is 0.5 µg/mL.
